Results from patent US7585851B2, “3′-prodrugs of 2′-deoxy-β-L-nucleosides” (priority 2000, dated 2009).

What was measured:
HepG2 cells = assay: Mitochondrial toxicity assay in HepG2 cells; type: cell-based, human; details: L-dC treated hepatocytes; read-out: IC50, lactic acid accumulation / mitochondrial changes
[1] = system: human erythroid burst-forming (BFU-E) progenitor cells; type: cell-based; details: human bone marrow clonogenic assay
From the text: (§1) In particular, anemia and neutropenia are the most common drug-related clinical toxicities associated with the anti-HIV drug zidovudine (ZDV).

[2] = system: human granulocyte-macrophage colony-forming (CFU-GM) progenitor cells; type: cell-based; details: human bone marrow clonogenic assay
From the text: as §1

Measured: IC50

Nc1ccn([C@@H]2C[C@@H](O)[C@H](CO)O2)c(=O)n1 [L-dC, 2′-deoxy-β-L-cytidine]
> 10 µM: all assays above
